Test results as given in patent US9345766B2, “Combination therapies comprising anti-ERBB3 agents” (Merrimack Pharmaceuticals, Inc., priority 2012, dated 2016).

Legend:
[1] = system: BT474-M3 cells; assay: Spheroid in vitro tumor model assay, estrogen-stimulated; type: cell-based; settings: estrogen-stimulated BT474-M3 spheroids, dose range
[2] = system: BT474-M3 cells; assay: Spheroid in vitro tumor model assay, heregulin-stimulated; type: cell-based; settings: heregulin (HRG)-stimulated BT474-M3 spheroids, dose range
[3] = system: BT474-M3 cells; assay: Spheroid in vitro tumor model assay, dual ligand (estrogen and heregulin)-stimulated; settings: dual ligand (estrogen and heregulin) stimulated spheroids, dose range
[4] = system: phospho-ErbB3 (pErbB3); assay: Cell signaling assay, pErbB3 ELISA in heregulin-stimulated BT474-M3 cells; type: cell-based; settings: 5 nM heregulin for 10 min vs unstimulated (basal)
Protocol: Cell lysates are probed for phospho-ErbB3 (pErbB3), and phospho-AKT (pAKT) by ELISA as described previously (Schoeberl et al, 2009) Inhibitor IC50 values are calculated by fitting dose-response data to a 4-parameter sigmoidal curve (GraphPad Prism®, GraphPad Software, Inc., La Jolla, Calif.).
Model-generated dose-response curves overlay the experimental data (FIG. 7a). […] Untreated and heregulin-stimulated cells were probed for pErbB3 and pAKT and the IC50 was calculated (FIG. 7b).
Amounts of pAKT and pErbB3 were measured by ELISA essentially as described.

Q: Which spheroid growth [1] does the source give for “MM-111: bispecific anti-ErbB2/anti-ErbB3 antibody, scFv HSA conjugate, amino acid sequence SEQ ID NO:1” here?
A: Its spheroid growth is “showed inhibitory effects on spheroid growth”.

Q: What does the source list for `C[C@]12CC[C@@H]3c4ccc(O)cc4C[C@@H](CCCCCCCCC[S+]([O-])CCCC(F)(F)C(F)(F)F)[C@H]3[C@@H]1CC[C@@H]2O` (some centres unmarked) [fulvestrant]?
A: spheroid growth [2]: did not inhibit heregulin stimulated spheroid growth; spheroid growth [3]: inhibited spheroid growth; spheroid growth [1]: showed inhibitory effects on spheroid growth

Q: `CS(=O)(=O)CCNCc1ccc(-c2ccc3ncnc(Nc4ccc(OCc5cccc(F)c5)c(Cl)c4)c3c2)o1` [lapatinib] was tested. Which “inhibition of heregulin-activated signaling (pErbB3 and pAKT)” value [4] did it give?
A: Its value is “not an effective inhibitor of heregulin-activated signaling”.
